SMILES strings stand for the structures.

Sequences of proteins named here, by UniProt entry; tags and fusion partners are left off.
UniProt P32300, whole entry, looked up: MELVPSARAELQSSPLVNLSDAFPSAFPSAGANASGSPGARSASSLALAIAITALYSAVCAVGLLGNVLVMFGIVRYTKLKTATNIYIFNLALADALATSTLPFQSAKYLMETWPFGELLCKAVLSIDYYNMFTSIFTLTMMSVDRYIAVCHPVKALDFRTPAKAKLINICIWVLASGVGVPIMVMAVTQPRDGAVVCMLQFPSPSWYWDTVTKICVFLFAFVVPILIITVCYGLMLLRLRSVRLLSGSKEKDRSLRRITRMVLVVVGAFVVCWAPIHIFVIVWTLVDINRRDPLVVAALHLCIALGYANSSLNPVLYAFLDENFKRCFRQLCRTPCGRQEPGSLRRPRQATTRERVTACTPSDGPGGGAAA

For the assay, the target named is Delta-type opioid receptor (Mus musculus) (UniProt P32300). Briefly: Effective dose required for antagonist activity against Opioid receptor delta 1.

Regarding `CN(C(=O)Cc1ccc(Cl)c(Cl)c1)C1CCCCC1N1CCCC1` (stereo unspecified), the ED50 ratio amounted to 3.18.

(Values after ChEMBL document CHEMBL1124781.)
